Assay results as given in ChEMBL document CHEMBL1131565, “Aminopyrimidines with high affinity for both serotonin and dopamine receptors” (J Med Chem, 1998).

Biological target: 5-hydroxytryptamine receptor 1A (Rattus norvegicus) (UniProt P19327)
Test: Intrinsic agonist activity at 5-HT1A receptors was measured in vivo by measuring changes in 5-HT levels after administration of compound by observing accumulation of the 5-HT […] 5-hydroxytryptophan (5-HTP) after administration of a 10 mg/k g ip

In the case of `c1ccc(N2CCN(CC[C@H]3CC[C@H](Nc4ncccn4)CC3)CC2)cc1`, the Control is reported as 57%.
